# Ab-14 heavy chain CDR variants: yeast mating affinities

All variants were tested on one target, the spike HR2 peptide PDVDLGDISGINAS (SARS-CoV-2).

Each scFv is VH, a 15-residue (Gly4Ser)3 linker, VL, as in the parent Ab-14, and differs from it in the CDRs of the heavy chain only.
VH: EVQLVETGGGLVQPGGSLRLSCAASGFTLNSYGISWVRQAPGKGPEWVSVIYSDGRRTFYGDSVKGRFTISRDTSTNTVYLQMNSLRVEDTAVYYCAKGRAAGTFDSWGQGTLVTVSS
VL: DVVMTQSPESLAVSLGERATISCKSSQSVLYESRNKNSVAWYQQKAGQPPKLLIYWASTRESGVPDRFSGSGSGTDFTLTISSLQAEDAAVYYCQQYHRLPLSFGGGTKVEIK

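The parent was found by panning a naive human phage display library on the peptide. In library AAYL49, one, two or three CDR residues were substituted; doubles and triples were drawn at random. In AlphaSeq, yeast of one mating type display the scFv and yeast of the other type display the target. After mating in shaken culture at 30 °C for 16 h, diploids were selected and their barcode pairs sequenced. Scores were corrected for input abundance and mapped to Kd with protein pairs of known affinity run in the same pool. The assay was run in three technical replicates.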

Positions count from residue 1 of the parent VH; S31A puts A in place of S.
Affinities are written as log10 Kd with Kd in nM; a lower number is a better binder.
Replicates are averaged; those with no signal do not enter the mean.
"nd" marks a missing value. The strain was present, yet no cells mated with the target were sequenced in that replicate, which points to weak or no binding.
As a blank, each scFv also met three strains without target: over library AAYL49, 15% of these pairings were detected, typically at 4.06 and seldom below 2.83. The control count says in how many pairings with the empty strains this scFv gave a signal, with their mean in brackets.
In this assay the parent's reference entry averaged 0.65; its copy inside this library read 4.11 (one replicate of three).

changes | replicates, log10 nM | log10 Kd (nM), mean | empty controls
S31A V50H R57M | nd nd nd | nd | 0/9
R56T R100G | nd nd nd | nd | 0/9
G26D D62S S107F | nd nd nd | nd | 0/9
Y60V S63H A101W | nd nd 3.05 | 3.05 | 0/9
K65F T104R | 2.25 2.26 4.21 | 2.91 | 1/9 (2.95)
Y52S T104H | nd 4.36 3.49 | 3.92 | 1/9 (3.34)
S35E D62C G99Q | 4.33 3.89 5.39 | 4.54 | 6/9 (4.94)
N30D F59G V64E | nd nd 4.87 | 4.87 | 3/9 (4.02)
S31R Y32F S53C | nd nd nd | nd | 0/9
N30Q F59A | 0.19 0.35 0.21 | 0.25 | 3/9 (3.28)
Y32I D62L G103N | nd nd nd | nd | 0/9
S63D A102C D106S | nd nd nd | nd | 0/9
S35P A101K S107W | nd 4.31 nd | 4.31 | 1/9 (4.43)
T58F T104I F105E | 3.03 2.28 2.79 | 2.70 | 1/9 (4.54)
F27Y R56G T104W | nd nd nd | nd | 0/9
S35M A102R T104F | nd nd nd | nd | 1/9 (2.89)
D54M A102Q F105G | nd 3.98 nd | 3.98 | 1/9 (3.84)
G33H R56T G103L | 4.08 nd nd | 4.08 | 0/9
F27M Y52S G55M | nd 2.94 nd | 2.94 | 1/9 (3.78)
Y52W A101N G103V | 3.81 nd nd | 3.81 | 2/9 (3.59)
R57S D62G | nd nd nd | nd | 1/9 (4.43)
D54E G55P F105G | nd nd nd | nd | 0/9
S35L R57N A101W | nd nd nd | nd | 3/9 (3.85)
S53P K65G | 3.68 3.23 3.77 | 3.56 | 3/9 (4.31)
F59S R100L T104G | nd nd 3.69 | 3.69 | 2/9 (2.81)
S35L F59E T104D | 5.41 4.28 4.32 | 4.67 | 7/9 (4.66)
T28M Y32H A101F | 2.32 3.79 3.14 | 3.08 | 0/9
N30R R57Q F105Y | nd 3.59 nd | 3.59 | 0/9
S63K A102K | 0.66 0.76 0.27 | 0.56 | 0/9
G26A G61F G99V | nd nd nd | nd | 1/9 (3.11)
F59H R100P F105K | 1.97 1.79 1.82 | 1.86 | 1/9 (3.03)
T28Y L29N G33T | nd nd nd | nd | 0/9
N30M R57E A102W | nd nd nd | nd | 2/9 (2.61)
G99M G103I | nd nd nd | nd | 0/9
N30A R57M G103A | nd nd nd | nd | 0/9
G26T V50I D62C | nd nd nd | nd | 0/9
G33N S63Q T104S | 4.06 4.69 nd | 4.37 | 4/9 (4.38)
L29Q K65E G103E | nd nd 4.69 | 4.69 | 0/9
S35C G99D A102S | nd nd nd | nd | 0/9

From the list, the first 2 with no signal in any replicate:

changes | replicates, log10 nM | log10 Kd (nM), mean | empty controls
S31A V50H R57M | nd nd nd | nd | 0/9
R56T R100G | nd nd nd | nd | 0/9

The measurements come from Engelhart et al. 2022 (doi:10.1038/s41597-022-01779-4) through the FLAb antibody collection.